# Assay results from patent publication US6162875A, “Low nitrosamine systems for rubber vulcanization” (Robinson Brothers Limited, priority 1992, dated 2000).
# Experiments:
# TA 1535 = test: Test to check the mutability of the bacterial strains, TA 1535; conditions: 5.0 μg/plate, without metabolic activation
# TA 100 = test: Test to check the mutability of the bacterial strains, TA 100; conditions: 5.0 μg/plate, without metabolic activation
smiles,measurement,setting,value
CCN(N=O)C(=N)N[N+](=O)[O-],mutagenic to TA 1535,TA 1535,weakly mutagenic
same,mutagenic to TA 100,TA 100,weakly mutagenic
